Molecules are shown by their SMILES.

The test concerns the target T1, epidermal growth factor receptor tyrosine kinase (Homo sapiens, UniProt P00533).
T1 construct: A native 170,000 epidermal growth factor receptor-kinase complex from shed plasma membrane vesicles; endogenous in cells
Kind of test: EGF receptor tyrosine kinase assay (P^32 incorporation in GAT). It counts as biochemical. Particulars: read-out: % Inhibition at 100 μM (EGFR TK). The method, then: At the time of assay, membranes were solubilized in 4% Triton X-100 and glycerol. The reaction is carried out in wells of a 96-well microtiter plate in a total volume of […]. Buffer containing 20 mMHepes (pH 7.4), 15 mMMgCl2, mM MnCl2, and 0.02% BSA followed by […] of membrane protein and 150 ng of epidermal growth factor. The plates are incubated for 10 minutes at room temperature to activate the receptor kinase. […] ATP plus or minus compound are added and incubated 10 minutes at room temperature.

For `COC(=O)c1ccc(C(=O)C2C(=S)N(C)c3ccccc32)cc1` (centres unmarked) [Compound 26, 3-(4'-carbomethoxybenzoyl) -1-methyl-2-indolinethione], the inhibition at 100 µM was 23%.
The value for `CN1C(=S)C(C(=O)c2ccccc2)c2ccccc21` (centres unmarked) [Compound 24, 3-benzoyl-1-methyl-2-indolinethione] was 19%.

In general, inhibition refers to the share of the control response that was lost under treatment.

Source of the values: patent US5464861A, “2-thioindoles (selenoindoles) and related disulfides (selenides) which inhibit protein tyrosine kinases and which have antitumor properties” (Warner-Lambert, priority 1993, dated 1995).
